Laboratory results published in ChEMBL document CHEMBL2311497, “An optimized RAD51 inhibitor that disrupts homologous recombination without requiring Michael acceptor reactivity” (J Med Chem, 2013).

Biological target: T1, DNA repair protein RAD51 homolog 1 (Homo sapiens) (UniProt Q06609)
T1 sequence (whole entry): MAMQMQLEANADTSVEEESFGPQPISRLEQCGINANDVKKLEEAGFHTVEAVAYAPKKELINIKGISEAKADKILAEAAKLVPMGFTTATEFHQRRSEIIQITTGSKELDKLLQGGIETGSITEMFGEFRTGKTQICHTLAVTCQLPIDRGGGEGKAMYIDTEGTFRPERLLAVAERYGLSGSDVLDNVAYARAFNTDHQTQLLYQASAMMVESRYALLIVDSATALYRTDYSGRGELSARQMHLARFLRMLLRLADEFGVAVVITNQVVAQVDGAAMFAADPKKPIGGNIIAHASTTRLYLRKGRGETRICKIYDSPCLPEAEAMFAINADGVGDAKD
Test: Inhibition of RAD51 in HEK293 cells assessed as stimulation of single strand annealing at 20 uM after 24 hrs by reporter gene assay based FACS analysis
Format: cell-based

Activity: Active
SMILES: O=C1C(Cl)=C(N2CCOCC2)C(=O)N1c1ccc(Cl)c(Cl)c1

Calls of active or inactive are those of the source. No cut-off for these calls is given here.
